Key:
[1] = system: human hepatoma MHCC97H cell line; experiment: Anti-tumor effect in MHCC97H xenograft model; format: in vivo, BALB/c nude mice; conditions: 25th day after dosing
Experimental: BALB/c nude mice were subcutaneously inoculated with MHCC97H cells to develop human hepatocellular carcinoma subcutaneously transplanted tumor model. The experiment was divided into groups including crystal form A of SPH1772 ditartrate (0.05 mg/kg, 0.5 mg/kg and 5 mg/kg), positive control INC280 hydrochloride (5 mg/kg), and Vehicle control group, 10 mice in each group, intragastric administration once a day, lasting 21 days. The efficacy was according to the relative tumor inhibition rate (TGI) and tumor growth delay time, the safety was evaluated according to animal weight and death.
BALB/c nude mice, female, 7 to 9 weeks old (the age when mice were inoculated with tumor cells), weight 19.5 to 23.9 g, 75 animals. BALB/c nude mice were purchased from Shanghai Lingchang Biotechnology Co., Ltd., animal certificate number: 2013001816956. Rearing environment: SPF level.
MHCC97H (Zhongshan Hospital subsidiary to Fudan University) was cultured in DMEM containing 10% fetal bovine serum. MHCC97H cells were collected during exponential growth phase, the cells in PBS was re-suspended to a suitable concentration for subcutaneous tumor inoculation in mice. […]
All experimental results were expressed as mean tumor volume±SEM (mean standard error). […] All data was analyzed by SPSS 18.0. p<0.05 was considered having significant differences.

[2] = system: H1993 human lung cancer cell; experiment: Inhibition of proliferation of human lung cancer H1993 cells (CCK-8); format: cell-based; conditions: NCI-H1993, 72 h, CCK-8, 72 hours incubation, read-out: IC50, proliferation of H1993 cell line
Excerpt: In the present embodiment, the Cell Counting Kit-8 (CCK-8) reagent was used to screen the compound SPH1772 and the salt thereof for inhibiting tumor cell proliferation against human lung cancer H1993 cell line, which was used to evaluate the in vitro inhibitory activity of the test compounds on this cell line.
CCK-8 is a kit for detecting cell proliferation, cell survival and cytotoxicity and an alternative method for the MTT method.
All samples were formulated to a 10^−2 M stock solution with DMSO and stored in small quantities at −80° C. for use.
1, Cell culture and inoculation: on the first day of the experiment, took normal cultured cells, when cells were in the exponential growth phase, the cells were dispersed by digesting and then inoculated in a 96-well cell culture plate at a density of 5.5×10^4 cells/mL (representing 55000 cells per mL), 90 μL per well; after completion of inoculation, the microplate was placed at 37° C. under 5% CO2 condition overnight. […]
3, Data acquisition: the compound and cells were incubated for 72 hours, the microplate containing the cells was taken out from incubator, 10 μL Cell Counting Kit-8 reaction solution was added to each well, and the microplate was placed in an incubator for 2-3 hours. The absorbance values were measured at 450 nm on the Flexstation 3 and set 650 nm as the reference wavelength. […]

Row | IC50 [2] [nM] | Structure (SMILES) | relative tumor volume (x ± S) ([1]; 5 mg/kg intragastric once a day) | TGI (relative tumor inhibition rate) ([1]; 5 mg/kg, from relative tumor volume) [%]
1 | – | CNC(=O)c1ccc(-c2cnc3ncc(Cc4ccc5ncccc5c4)n3n2)cc1F [INC280] | 1.05 ± 0.09 | 91
2 | 2.1 | CNC(=O)c1ccc(-c2cnc3ncc(Cc4ccc5ncccc5c4)n3n2)cc1F [INCB28060, Capmatinib] | – | –
